Results on one compound are retold here after article PMC9101642 (Molecules, 2022).

The assay deals with MCF-7 cell lines. Kind of assay: MTT antiproliferative assay. The following applies: read-out: MCF-7 (IC50); virtually screened NCI hits, Table S17. (In general: Tetrazolium dyes change colour on reduction, which living cells bring about.)

In general, IC50 refers to the concentration needed to halve the response being measured. As to `O=C(O)c1ccccc1-n1c2ccccc2c2ccccc21` [Compound 10211], the IC50 was 73.9 ± 11.4 µM.
